Molecular target: Rabbit sEH (Oryctolagus cuniculus, UniProt A0A5F9CRP6)
Details: read-out: IC50 Rabbit sEH; radioactive assay and liver cytosolic preparation

Chains of the proteins cited; added tags and fusions are not shown. Residues count along the entry.
UniProt A0A5F9CRP6, 1-555: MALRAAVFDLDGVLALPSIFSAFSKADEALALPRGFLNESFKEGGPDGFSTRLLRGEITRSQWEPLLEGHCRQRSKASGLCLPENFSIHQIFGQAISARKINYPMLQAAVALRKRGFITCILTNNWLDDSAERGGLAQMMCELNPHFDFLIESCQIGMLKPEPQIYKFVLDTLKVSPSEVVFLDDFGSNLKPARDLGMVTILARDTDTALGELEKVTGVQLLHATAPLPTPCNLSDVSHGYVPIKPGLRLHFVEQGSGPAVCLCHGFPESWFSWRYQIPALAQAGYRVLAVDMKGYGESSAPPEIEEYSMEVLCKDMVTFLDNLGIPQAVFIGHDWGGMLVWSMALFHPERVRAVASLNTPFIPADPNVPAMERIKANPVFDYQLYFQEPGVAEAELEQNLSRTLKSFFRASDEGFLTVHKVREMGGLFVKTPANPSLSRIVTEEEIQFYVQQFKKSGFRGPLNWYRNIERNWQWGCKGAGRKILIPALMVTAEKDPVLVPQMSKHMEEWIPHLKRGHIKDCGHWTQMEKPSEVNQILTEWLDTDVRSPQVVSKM

**Q.** How did the IC50 turn out when `O=C(Nc1ccc(OC(F)(F)F)cc1)N[C@H]1CC[C@H](Oc2ccc(C(=O)O)cc2)CC1` [EC1728, trans-4-{4-[3-(4-trifluoromethoxy-phenyl)-ureido]-cyclohexyloxy}-benzoic acid] was run?
**A.** 2 nM

— patent US11987542B2, “Co-crystal of sorafenib derivatives and process for preparation thereof” (EicOsis, LLC, priority 2018, dated 2024)
